This is an account of results in paper PMC9635817 (Frontiers in Nutrition, 2022).

By UniProt entry, the sequences of proteins in these tests, tags left out. Residues count along the entry.
UniProt O42275, 24-633 limits assumed: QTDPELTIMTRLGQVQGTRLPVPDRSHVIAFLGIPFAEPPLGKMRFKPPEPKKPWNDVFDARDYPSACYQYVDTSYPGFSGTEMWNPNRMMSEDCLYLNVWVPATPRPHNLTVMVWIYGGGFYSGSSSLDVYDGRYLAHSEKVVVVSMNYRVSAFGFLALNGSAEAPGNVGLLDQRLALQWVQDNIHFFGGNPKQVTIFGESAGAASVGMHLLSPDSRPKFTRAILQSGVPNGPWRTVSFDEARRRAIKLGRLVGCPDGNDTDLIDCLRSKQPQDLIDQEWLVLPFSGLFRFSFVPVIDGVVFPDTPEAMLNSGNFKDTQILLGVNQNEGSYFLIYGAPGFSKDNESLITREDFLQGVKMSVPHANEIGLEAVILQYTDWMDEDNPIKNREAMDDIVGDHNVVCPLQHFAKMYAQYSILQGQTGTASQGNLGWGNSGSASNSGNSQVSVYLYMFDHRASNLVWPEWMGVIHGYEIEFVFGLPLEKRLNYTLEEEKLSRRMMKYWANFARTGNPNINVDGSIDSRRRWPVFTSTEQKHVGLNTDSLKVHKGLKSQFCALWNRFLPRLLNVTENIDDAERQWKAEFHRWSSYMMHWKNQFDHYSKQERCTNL

Like-named read-outs stand apart in the source and are kept apart here.

As a reminder, the Ki is the dissociation constant of the complex between target and ligand, obtained from inhibition or displacement.

Assay [1] has as its target AChE from electric eel (Electrophorus electricus, UniProt O42275). Put plainly: Ellman assay, in vitro inhibition of acetylcholinesterase. On the technique in general: DTNB colorimetry detects thiols as they appear.
Assay [2] relates to AChE. The note with it: cited from earlier work.
In assay [3] the target is AChE (Electrophorus electricus, UniProt O42275). Put plainly: Kinetics of AChE inhibition (Lineweaver-Burk). The note with it: read-out: Ki (mM), enzyme-inhibitor dissociation constant; x-axis intercept of slope of Lineweaver-Burk line versus peptide concentration.
Where [4] appears, read: read-out: IC50 (μg/mL), Ellman assay, ATCI 2.5 mM, 0.1 M phosphate buffer pH 7.4, 37 °C, mean ± SD, n = 3.

With `N=C(N)NCCC[C@H](N)C(=O)N[C@@H](CO)C(=O)N[C@@H](CCC(N)=O)C(=O)N[C@@H](CO)C(=O)N[C@@H](CCC(N)=O)C(=O)O`, the IC50 stood at 2.6 µM in assay [1] (setting [4]) and 3.05 µM in assay [1] (same IC50 expressed in μM).

Consider `CC(C)[C@H](N)C(=O)N[C@@H](CC(N)=O)C(=O)N[C@@H](CCCNC(=N)N)C(=O)N1CCC[C@H]1C(=O)NCC(=O)N[C@@H](CCCCN)C(=O)O`, for which the IC50 in assay [1] (setting [4]) is 2.4 µM; in assay [1] (same IC50 expressed in μM), 2.87 µM.

On to `N=C(N)NCCC[C@H](NC(=O)[C@H](CCC(=O)O)NC(=O)[C@H](CCCCN)NC(=O)[C@H](CCCCN)NC(=O)[C@@H](N)CC(=O)O)C(=O)NCC(=O)O`, for which the IC50 was determined as 2.1 µM in assay [1] (setting [4]) and 2.47 µM in assay [1] (same IC50 expressed in μM).

On to `C[C@@H]1O[C@@H](OC[C@H]2O[C@@H](Oc3c(-c4ccc(O)c(O)c4)oc4cc(O)cc(O)c4c3=O)[C@H](O)[C@@H](O)[C@@H]2O)[C@H](O)[C@H](O)[C@H]1O`, for which the “cholinesterase inhibition IC50” value in assay [2] was 12.00 µg/mL.

`NC(=O)CC[C@H](NC(=O)[C@H](CO)NC(=O)[C@H](CCC(N)=O)NC(=O)[C@@H](N)CO)C(=O)O`: in assay [1] (setting [4]), the IC50 is 3.52 µM.

With `N=C(N)NCCC[C@H](NC(=O)[C@H](CCC(=O)O)NC(=O)[C@H](CC(=O)O)NC(=O)[C@H](CCC(N)=O)NC(=O)[C@@H]1CCCN1)C(=O)O`, the Ki in assay [3] came out at 0.08 mM. Besides, the results for the IC50 in assay [1] (setting [4]) and in assay [1] (same IC50 expressed in μM) were 2.39 µM and 2.78 µM, respectively.

On to Snakin-Z, for which, in assay [2], the “AChE-inhibitory IC50” value was 580 µg/mL.

Consider `NCCCC[C@H](NC(=O)[C@H](CCC(N)=O)NC(=O)[C@H](CC(N)=O)NC(=O)[C@@H](N)CCCCN)C(=O)N[C@@H](CCC(N)=O)C(=O)N[C@@H](CO)C(=O)O`, for which the IC50 in assay [1] (setting [4]) was found to be 1.97 µM; in assay [1] (same IC50 expressed in μM) it was 2.3 µM.

For the compound `CSCC[C@H](NC(=O)[C@H](CC(C)C)NC(=O)[C@@H]1CCCN1)C(=O)N[C@@H](CC(C)C)C(=O)N[C@@H](CC(C)C)C(=O)N[C@@H](C)C(=O)O`, the IC50 in assay [1] (setting [4]) turned out to be 2.45 µM; in assay [1] (same IC50 expressed in μM) it was 2.94 µM.

As to `CC[C@H](C)[C@H](NC(=O)[C@H](C)NC(=O)[C@@H](NC(=O)[C@@H]1CCCN1C(=O)[C@@H](N)Cc1c[nH]cn1)C(C)C)C(=O)N[C@@H](CC(N)=O)C(=O)N[C@@H](C)C(=O)O`, the IC50 in assay [1] (setting [4]) was 2.29 µM; in assay [1] (same IC50 expressed in μM) it was 2.77 µM.

As to `C[C@@H](O)[C@H](NC(=O)[C@@H](N)CCC(=O)O)C(=O)N[C@@H](CCCNC(=N)N)C(=O)N[C@@H](CO)C(=O)N[C@@H](CCC(N)=O)C(=O)O`, the Ki in assay [3] is 0.06 mM. Also, the IC50 in assay [1] (setting [4]) was 2.53 µM; in assay [1] (same IC50 expressed in μM), 2.96 µM.

Take `CC(C)[C@H](NC(=O)[C@@H](N)CCCCN)C(=O)N[C@@H](CO)C(=O)N[C@@H](CCCNC(=N)N)C(=O)N[C@@H](CC(=O)O)C(=O)N[C@@H](CCC(N)=O)C(=O)O`: the IC50 was 1.9 µM in assay [1] (setting [4]) and 2.22 µM in assay [1] (same IC50 expressed in μM).

Take `CC(C)C[C@H](NC(=O)[C@H](C)NC(=O)[C@H](CC(N)=O)NC(=O)[C@H](Cc1c[nH]cn1)NC(=O)[C@@H](N)CCC(N)=O)C(=O)O`: the results for the IC50 in assay [1] (setting [4]) and in assay [1] (same IC50 expressed in μM) were 2.79 µM and 3.29 µM, respectively.

As to `CC(C)C[C@H](N)C(=O)N[C@@H](CCC(N)=O)C(=O)N[C@@H](Cc1c[nH]cn1)C(=O)N[C@@H](CC(N)=O)C(=O)N[C@@H](C)C(=O)O`, the Ki in assay [3] stood at 0.16 mM. Besides, the figures for the IC50 in assay [1] (setting [4]) and in assay [1] (same IC50 expressed in μM) were 2.63 µM and 3.1 µM, respectively.

As for `O=c1cc(-c2ccc(O)cc2)oc2cc(O)cc(O)c12`, the “cholinesterase inhibition IC50” value in assay [2] was 3.12 µg/mL.

Turning to `CC(C)[C@H](NC(=O)[C@@H](N)CCC(N)=O)C(=O)N[C@@H](Cc1ccccc1)C(=O)N[C@@H](CCCNC(=N)N)C(=O)N[C@@H](C)C(=O)N[C@H](C(=O)O)[C@@H](C)O`, the values for the IC50 in assay [1] (setting [4]) and in assay [1] (same IC50 expressed in μM) were 2.25 µM and 2.64 µM, respectively.

With `NC(=O)CC[C@H](NC(=O)[C@H](CO)NC(=O)[C@@H](N)CCC(N)=O)C(=O)N[C@@H](CO)C(=O)O`, the Ki in assay [3] stood at 0.43 mM. The IC50 in assay [1] (setting [4]) was determined as 3.57 µM; in assay [1] (same IC50 expressed in μM), 4.25 µM.

Regarding `CC(C)C[C@H](N)C(=O)N[C@@H](CCCCN)C(=O)N[C@@H](CO)C(=O)N[C@@H](CC(N)=O)C(=O)N[C@@H](CC(=O)O)C(=O)N[C@@H](CCCNC(=N)N)C(=O)O`, the results for the IC50 in assay [1] (setting [4]) and in assay [1] (same IC50 expressed in μM) were 2.2 µM and 2.58 µM, respectively.

Regarding `C[C@@H](O)[C@H](N)C(=O)N[C@@H](CCCNC(=N)N)C(=O)N[C@@H](CO)C(=O)N[C@@H](CCC(N)=O)C(=O)N[C@@H](CCC(=O)O)C(=O)O`, the IC50 came to 2.58 µM in assay [1] (setting [4]) and 3 µM in assay [1] (same IC50 expressed in μM).

As for `CC(C)[C@H](N)C(=O)N[C@@H](CC(N)=O)C(=O)N[C@@H](CCCNC(=N)N)C(=O)N[C@@H](Cc1ccccc1)C(=O)N[C@@H](CCCNC(=N)N)C(=O)O`, the IC50 in assay [1] (setting [4]) stood at 2.33 µM; in assay [1] (same IC50 expressed in μM), 2.69 µM.

`C[C@H](NC(=O)[C@H](Cc1ccccc1)NC(=O)[C@H](Cc1c[nH]cn1)NC(=O)[C@H](CO)NC(=O)[C@@H](N)CCC(N)=O)C(=O)N[C@@H](CC(=O)O)C(=O)O`: the values for the IC50 in assay [1] (setting [4]) and in assay [1] (same IC50 expressed in μM) were 2.3 µM and 2.71 µM, respectively.
